Experimental data taken from patent US20080160099A1, “Methods For Treating or Preventing a Vascular Disease” (THE TRUSTEES OF COLUMBIA UNIVERSITY IN THE CITY OF NEW YORK, priority 2004, published 2008).

Molecular target: T1, MMP-2 (Homo sapiens, UniProt P08253)
T1 construct: endogenous in cells; host or cells: fibroblasts cultured from AAA (abdominal aortic aneurysm) specimens
T1 sequence (P08253 110-660): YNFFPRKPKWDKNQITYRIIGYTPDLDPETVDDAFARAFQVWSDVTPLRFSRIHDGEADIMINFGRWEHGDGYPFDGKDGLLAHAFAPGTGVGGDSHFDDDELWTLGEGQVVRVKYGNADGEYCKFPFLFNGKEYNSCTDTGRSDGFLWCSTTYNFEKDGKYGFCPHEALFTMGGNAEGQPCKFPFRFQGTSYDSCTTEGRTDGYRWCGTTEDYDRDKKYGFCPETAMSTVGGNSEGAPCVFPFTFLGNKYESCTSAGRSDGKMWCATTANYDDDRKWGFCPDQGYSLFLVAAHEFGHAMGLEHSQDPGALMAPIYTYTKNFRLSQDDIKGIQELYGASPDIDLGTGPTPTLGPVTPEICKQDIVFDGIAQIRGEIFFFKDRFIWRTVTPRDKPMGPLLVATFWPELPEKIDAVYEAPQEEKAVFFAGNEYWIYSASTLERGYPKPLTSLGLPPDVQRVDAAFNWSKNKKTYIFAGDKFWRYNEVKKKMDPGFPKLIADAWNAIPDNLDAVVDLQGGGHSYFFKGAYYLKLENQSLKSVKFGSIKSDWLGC
Assay: MMP-2 activity in lysates of fibroblasts cultured from AAA specimens, gelatin zymography with densitometry
Assay type: biochemical
Design: key to MMP-2 Inhibitory Activity: +++ indicates a very high degree of MMP-2 inhibition relative to the other compounds tested; ++ indicates a moderate degree of MMP-2 inhibition relative to the other compounds tested; + indicates a minor degree of MMP-2 inhibition relative to the other compounds tested; − indicates that the tested compound did not inhibit MMP-2
Experimental: Properties of different test compounds against MMP-2 activity of aneurysmal fibroblast origin were examined on 10% polyacrylamide gels containing 1.0 mg/mL of gelatin. Fibroblasts cultured from AAA specimens were lysed using the CellLytic-M lysis/extraction reagent. The protein concentration of each supernatant was determined using the Bradford method using bovine serum albumin as a standard. The aortic fibroblast lysates were incubated alone (control) or with an illustrative Compound or Extract of the Invention at various concentrations for 1 hour on ice. After test compound incubation, equivalent amounts of proteins (30 μg) were mixed with an equal volume of sample buffer (2% SDS, 125 mM Tris-HCL, pH 6.8, 10% glycerol and 0.001% bromophenol blue) and the resulting mixture was subjected to electrophoresis in Trir-glycine el. buffer (25 mMTris pH 8.3, 250 mM Glycine, 0.1% SDS) under denatured but non-reduced conditions. After completion of electrophoresis, the gels were incubated in 2% Triton X-100 for 30 min at room temperature to ensure complete removal of SDS. […] Enzyme activity was detected as unstained bands on a blue background. Quantity One (Bio-Rad Version 4.3.1) was used as a densitometer to quantitate test compound inhibitory ability.

**Q.** For (−)-epigallocatechin gallate, which “MMP-2 inhibitory ability (in words)” value (aneurysmal fibroblast MMP-2) is on record?
**A.** Its value is “inhibit aneurysmal fibroblast MMP-2 activity”.

**Q.** What about the “MMP-2 Inhibitory Activity” value (relative, aneurysmal fibroblast lysates, 1 hour incubation on ice) of the same substance?
**A.** The value was “+++”.
